Amino acid sequences for entries named in this document (tags omitted). Residues count along the entry.
UniProt Q13422, 83-213 isoform 7 limits assumed: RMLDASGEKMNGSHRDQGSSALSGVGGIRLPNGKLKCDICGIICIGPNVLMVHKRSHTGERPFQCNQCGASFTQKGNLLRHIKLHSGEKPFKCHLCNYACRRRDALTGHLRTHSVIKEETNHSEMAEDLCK
UniProt Q96SW2, whole entry partner: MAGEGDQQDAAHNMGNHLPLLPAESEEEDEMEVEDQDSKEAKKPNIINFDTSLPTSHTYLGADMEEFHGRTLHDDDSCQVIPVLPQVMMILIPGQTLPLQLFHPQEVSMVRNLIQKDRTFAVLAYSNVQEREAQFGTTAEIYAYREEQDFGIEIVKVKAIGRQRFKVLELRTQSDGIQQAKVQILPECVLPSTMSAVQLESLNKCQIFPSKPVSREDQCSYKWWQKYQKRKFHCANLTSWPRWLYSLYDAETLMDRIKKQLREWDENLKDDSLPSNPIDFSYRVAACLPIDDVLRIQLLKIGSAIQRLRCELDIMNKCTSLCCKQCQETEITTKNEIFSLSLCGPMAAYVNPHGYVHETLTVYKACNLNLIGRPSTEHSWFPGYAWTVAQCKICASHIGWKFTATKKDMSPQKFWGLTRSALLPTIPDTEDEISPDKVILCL
UniProt Q16531, whole entry partner: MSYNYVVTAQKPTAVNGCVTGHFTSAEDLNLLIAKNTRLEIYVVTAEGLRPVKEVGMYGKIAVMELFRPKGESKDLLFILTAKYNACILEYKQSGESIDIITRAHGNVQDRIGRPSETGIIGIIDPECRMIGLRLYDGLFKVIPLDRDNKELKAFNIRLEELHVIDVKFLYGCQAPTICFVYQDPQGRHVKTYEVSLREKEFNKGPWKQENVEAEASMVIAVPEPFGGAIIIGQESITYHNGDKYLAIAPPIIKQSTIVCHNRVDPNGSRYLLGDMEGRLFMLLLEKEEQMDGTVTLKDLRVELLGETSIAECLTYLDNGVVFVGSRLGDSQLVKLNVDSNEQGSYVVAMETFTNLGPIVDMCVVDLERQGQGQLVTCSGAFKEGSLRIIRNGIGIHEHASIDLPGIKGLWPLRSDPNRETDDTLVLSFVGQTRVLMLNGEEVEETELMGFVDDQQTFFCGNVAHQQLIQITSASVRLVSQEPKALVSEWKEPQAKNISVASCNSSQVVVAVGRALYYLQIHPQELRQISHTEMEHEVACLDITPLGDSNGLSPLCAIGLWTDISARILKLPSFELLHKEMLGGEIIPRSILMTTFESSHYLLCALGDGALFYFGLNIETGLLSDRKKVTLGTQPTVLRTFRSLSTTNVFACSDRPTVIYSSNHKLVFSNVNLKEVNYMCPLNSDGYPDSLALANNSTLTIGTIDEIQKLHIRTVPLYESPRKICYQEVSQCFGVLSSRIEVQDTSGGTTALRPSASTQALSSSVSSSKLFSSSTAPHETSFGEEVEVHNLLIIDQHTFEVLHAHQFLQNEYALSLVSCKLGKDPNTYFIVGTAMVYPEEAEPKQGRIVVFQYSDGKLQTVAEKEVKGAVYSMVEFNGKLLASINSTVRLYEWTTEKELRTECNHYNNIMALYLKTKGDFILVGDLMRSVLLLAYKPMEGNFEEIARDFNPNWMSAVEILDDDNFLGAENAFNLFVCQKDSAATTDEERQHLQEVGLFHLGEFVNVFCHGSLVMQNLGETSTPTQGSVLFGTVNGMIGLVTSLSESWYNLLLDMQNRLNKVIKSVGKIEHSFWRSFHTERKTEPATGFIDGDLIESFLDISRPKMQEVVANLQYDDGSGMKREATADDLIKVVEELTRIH

In US20230192644A1, “PIPERIDINE-2,6-DIONES AS SMALL MOLECULE DEGRADERS OF HELIOS AND METHODS OF USE” (DANA-FARBER CANCER INSTITUTE, INC., priority 2020, published 2023):

Tests used:
IKZF2 = test: GFP-IKZF2 cellular degradation assay (eGFP fusion/mCherry reporter, Flip-In 293 cells); settings: read-out: GFP IKZF2 DC50; Flip-In 293 cells stably expressing IKZF2 GFP fusion with mCherry reporter, 5 h
Description: IKZF1A and IKZF2A were subcloned into mammalian pcDNA5/FRT Vector (Ampicillin and Hygromycin B resistant) modified to contain MCS-eGFP-P2A-mCherry. Stable cell lines expressing eGFP-protein fusion and mCherry reporter were generated using Flip-In 293 system. Plasmid (0.3 μg) and pOG44 (4.7 μg) DNA were preincubated in 100 μL of Opti-MEM™ I (Gibco™, Life Technologies™) media containing 0.05 mg/mL Lipofectamine™ 2000 (Invitrogen™) for 20 min and added to Flip-In 293 cells containing 1.9 mL of DMEM media (Gibco™, Life Technologies™) per well in a 6-well plate format (Falcon, 353046). […]
The assay plate was imaged immediately using an Acumen High Content Imager (TTP Labtech) with 488 nm and 561 nm lasers in […] per well format. The resulting images were analyzed using CellProfiler (Carpenter et al., Genome Biol. 2006, 7:R100). […] First, the red and green channels were aligned and cropped to target the middle of each well (to avoid analysis of heavily clumped cells at the edges), and a background illumination function was calculated for both red and green channels of each well individually and subtracted to correct for illumination variations across the 384-well plate from various sources of error. […] The fraction of GFP-positive cells/mCherry-positive cells in each well was then calculated, and the green and red images were rescaled for visualization. […]

IKZF1 = IKZF1 (Homo sapiens, UniProt Q13422); test: GFP-IKZF1 cellular degradation assay (eGFP fusion/mCherry reporter, Flip-In 293 cells); settings: read-out: GFP IKZF1 DC50; Flip-In 293 cells stably expressing IKZF1 GFP fusion with mCherry reporter, 5 h

Row | DC50 (IKZF2) [nM] | DC50 (IKZF1) [nM] | Structure (SMILES)
1 | 24 | 4.4 | Cc1ccc(NC(=O)CC(C)(N)c2cccc(NC3=CC(=O)N(C4CCC(=O)NC4=O)C3=O)c2)cc1Cl (stereo not shown)
2 | 1.7 | 0.9 | Cc1ccc(NC(=O)NC2(c3cccc(NC4=CC(=O)N(C5CCC(=O)NC5=O)C4=O)c3)COC2)cc1Cl (stereo not shown)
